The values that follow come from patent US11753479B2, “Nucleic acids encoding anti-OX40L antibodies” (Kymab Limited, priority 2014, dated 2023).

The experiment concerns the target T1, hOX40L expressed on CHO-S cells (Homo sapiens, UniProt P23510).
T1 construct: expressed in transfected cells
T1 sequence (P23510 1-183): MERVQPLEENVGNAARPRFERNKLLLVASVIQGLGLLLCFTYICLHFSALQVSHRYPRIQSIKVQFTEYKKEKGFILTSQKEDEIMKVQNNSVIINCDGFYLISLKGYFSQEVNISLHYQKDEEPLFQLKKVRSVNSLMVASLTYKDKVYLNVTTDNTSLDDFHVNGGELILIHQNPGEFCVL
Briefly: Binding to CHO-S expressed hOX40L (FACS). The following applies: binding to CHO-S expressed hOX40L by FACS. The procedure: To determine whether wells selected using the primary screen selection criteria had the required characteristics set by the inventors, a number of assays were performed. Hybridoma clones selected as hits from primary screening were cultured for 3 days and the supernatants collected from hybridoma cells were tested to assess whether the secreted antibodies that bind to CHO-S expressed hOX40L, in some case bind to untransfected CHO-S cells and whether they neutralise recombinant OX40R Fc binding to CHO-S hOX40L and ability to neutralise OX40R binding to recombinant biotinylated hOX40L.
CHO-S cells expressing hOX40L or untransfected CHO-S cells, diluted in FACS buffer (PBS+1% w/v BSA+0.1% w/v NaN3) were distributed to a 96 well V-bottom plate (Greiner) at a density of 1×10^5 cells per well. […]
To fix cells 100 μL 2% v/v paraformaldehyde was added and cells incubated for 30 minutes at 4° C., cells were pelleted by centrifugation 300×g and the plates and resuspended in 50 μL of FACS buffer. PE and APC signal intensity (geomean) was measured by flow cytometry using a BD FACS Array instrument.
% of control binding was calculated using geomean fluorescence as described in equation 1 where total binding was defined as reference antibody at 10 μg/mL and non-specific binding as mouse IgG1 antibody at 10 μg/mL. % receptor binding was calculated using Equation 3. […]
On the technique in general: In flow cytometry, cells or beads pass a laser one at a time.

B1: 19H01 (hybridoma): murine/human chimeric anti-OX40L antibody purified from hybridoma supernatant (protein, listed as Homo Sapiens)
chain: EVQLVESGGGLVKPGGSLRLSCAASGFTFSNAWMSWVRQAPGKGLEWVGRIKSKTEGGTTDYAAPVKGRFTISRDDSKNTLYLQMNSLKTEDTAVYYCTTDFLWFGEFPFDYWGQGTLVTVSS
modifications: VH only; VL and constant regions missing
notes: murine/human chimeric anti-OX40L antibody purified from hybridoma supernatant
Take B1: the “FACS Binding” value is listed as “YES”.
